According to patent US20230398130A1, “METHODS AND COMPOSITIONS FOR DIFFERENTIATING STEM CELLS” (Massachusetts Institute of Technology, priority 2020, published 2023):

Test system: ISC-enriched organoids
Experiment: Primary screen, 384-well 2.5-D organoid differentiation (ENR+CD, 6 days, Target Selective Inhibitor Library, vs whole-plate median): ATP (CellTiter-Glo 3D, CTG)

CNC(=O)c1cc(Oc2ccc(NC(=O)Nc3ccc(Cl)c(C(F)(F)F)c3)cc2)ccn1 [Sorafenib] was tested, and the “Z.CTG (standard z score)” value was 0.077.
